# According to US6818618B1, “Inhibition of smooth muscle cell migration by Tenascin-C peptides” (Cedars-Sinai Medical Center, priority 1998, dated 2004):
# Experiments:
# Assay type in all cases: cell-based, rat
# [1] = tested on: adhesion of newborn SMCs to the Fbg-L domain; experiment: Adhesion of newborn SMCs to Fbg-L domain-coated wells in the presence of soluble agents; settings: EDTA or cations; not shown
# Method: (§1) Microtiter plates (Falcon, Becton Dickinson, Oxnard, Calif.) were coated with the respective substrate for one (1) hour at 37° C. Nonspecific sites were blocked with 1 mg/ml BSA in PBS. […] After incubation for 60 min. at 37° C., nonadherent cells were removed with gentle washing with PBS. The number of attached cells were quantified by staining cells with 0.2% crystal violet in 20% methanol, lysing with 1% SDS, and measuring the absorbance at 550 nm (14).
# (§2) In FIG. 8(B), 96-well plates were coated with BSA, intact Tenascin-C (TN) or the fibrinogen-like domain (Fbg-L), and adhesion of newborn cells was measured in the presence of 1 μM synthetic peptides.
# [2] = tested on: adhesion of newborn SMCs to Tenascin-C; experiment: Adhesion of newborn SMCs to Tenascin-C-coated wells in the presence of soluble agents
# Method: as §1
# It has been shown that the interaction of some cells with Tenascin-C is mediated by the RGD motif (20, 23). Therefore, an adhesion assay was used to determine the role of RGD in the interaction between Tenascin-C and SMCs. The specificity of the adhesion was determined by coating the wells with the recombinant 10th-type III repeat of fibronectin (24). In FIG. 2, 96-well plates were coated with either BSA (BSA), Tenascin-C (TN), or the recombinant 10th-type III repeat of fibronectin (10III) as described for FIG. 1. Newborn SMCs were detached, washed once in adhesion buffer and added to various concentrations of the peptide GRGDS. Cells and peptides were then preincubated for 30 min. prior to plating. The values shown are the mean±SEM of triplicate samples. Nonspecific binding to control wells coated with BSA was not subtracted from each value.
# In FIG. 3, 96-well plates were coated with solutions containing intact fibronectin (FN), the recombinant 10th-type III repeat of fibronectin (FN10III), or Tenascin-C (TN). […] The number of attached cells was quantified by a colorimeter. Values shown are from a representative experiment in which triplicates are plotted as mean±SEM. […]
# (§3) To distinguish between these possibilities, the recombinant FN-L proteins were labeled with ^125I, and their ability to coat the tissue culture dishes was compared to the Fbg-L domain. […] Adhesion was measured as described above. […]
# as §2
# [3] = tested on: adhesion of newborn SMCs to the recombinant 10th-type III repeat of fibronectin; experiment: Adhesion of newborn SMCs to the recombinant 10th-type III repeat of fibronectin in the presence of soluble agents; settings: various concentrations of cation
# Method: as §1
# It has been shown that the interaction of some cells with Tenascin-C is mediated by the RGD motif (20, 23). Therefore, an adhesion assay was used to determine the role of RGD in the interaction between Tenascin-C and SMCs. The specificity of the adhesion was determined by coating the wells with the recombinant 10th-type III repeat of fibronectin (24). […]
# In FIG. 3, 96-well plates were coated with solutions containing intact fibronectin (FN), the recombinant 10th-type III repeat of fibronectin (FN10III), or Tenascin-C (TN). […] The number of attached cells was quantified by a colorimeter. […]
# as §3
structure (smiles),measurement,setting,value
[Ca+2] [Ca^2+],effect on adhesion of SMCs to the Fbg-L domain,[1],but not
same,inhibition of the Mg^2+-dependent adhesion of newborn cells to Tenascin-C,"[2]; Ca^2+ up to 10 mM in the presence of Mg^2+, not shown",no indication
same,effect on adhesion of SMCs to Tenascin-C (summary statement),[2]; concentration not given,but not
same,effect of cation on newborn SMCs adhesion to Tenascin-C,[2]; various concentrations of cation,ineffective
same,effect of cation on newborn SMCs adhesion to the recombinant fibronectin fragment,[3],ineffective
